The values below come from PubChem BioAssay AID588850 (Sanford-Burnham Center for Chemical Genomics, 2011).

The entries are a selection whose mix differs from that of the whole data set. Some structures show a salt or complex split into parts, the way the source records it. The source made the active and inactive calls.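 How the source made its calls: active means at least 50% inhibition at 5 µM, scaled per plate between neutral and stimulator controls; inactive means the rest.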

The nature of this test: NF-kB reporter blockers in CF airway cells – cell-based, GFP fluorescence, uHTS, primary screen (AID 588850).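 Further: PAF is a Pseudomonas aeruginosa culture filtrate used as stimulus; plate controls were PAF-stimulated DMSO wells for no effect and unstimulated DMSO wells for full effect.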 As to conditions: KKLEB NF-kB-GFP reporter, PAF-induced, GFP fluorescence overnight; at 5 µM; active compounds read high.
A word on the inhibition: it is the drop in the measured response relative to a control, in per cent. Regarding `CP(=O)(OC12CC3CC(CC(C3)C1)C2)OC12CC3CC(CC(C3)C1)C2`, the inhibition was inactive: -0.5%.
The result for `CCOC(=O)c1ccc(NP(C)(=O)Oc2ccc(Cl)cc2)cc1` (stereo not given) reads inactive: -21.5%; that for `CP(=O)(Nc1ccc(Cl)cc1)Oc1ccc(F)cc1` (stereo not given), inactive: 12.4%; that for `CC(C)(C)c1ccc(OP(C)(=O)O)cc1`, inactive: -1.6%.
As for `COc1ccccc1OP(C)(=O)Nc1ccccc1Br` (stereo not given), the inhibition was inactive: 6.6%.
The result for `CN(C)C(=O)c1c([N+](=O)[O-])cc([N+](=O)[O-])cc1[N+](=O)[O-]` reads inactive: 12.6%; that for `COc1ccc(OP(C)(=O)Nc2ccc(Br)cc2)cc1` (stereo not given), inactive: -2.3%; that for `CCN(CC)CC(O)COC(=O)C(O)(c1ccccc1)C1CCCCC1` (stereo not given), inactive: -5.1%.
Under `CCc1ccc(OP(C)(=O)Nc2cccnc2)cc1` (stereo not given) stands inactive: 4.6%.
The result for `CP(=O)(Oc1ccccc1)N1CCOC1=O` (stereo not given) reads inactive: -11.1%; that for `O=C(OCCCN1CCCC1)C(O)(c1ccccc1)C1CCCCC1` (stereo not given), inactive: 3%.
For `COc1ccccc1OP(C)(=O)Nc1c(C)n(C)n(-c2ccccc2)c1=O` (stereo not given), the inhibition is inactive: -3.3%.
As for `O=[N+]([O-])c1cc([N+](=O)[O-])c(Nc2ccccn2)c([N+](=O)[O-])c1`, the inhibition is inactive: 9.8%.
As for `Cc1c(NP(C)(=O)Oc2ccc(C(C)C)cc2)c(=O)n(-c2ccccc2)n1C` (stereo not given), the inhibition is inactive: -0.9%.
Under `CCc1ccc(OP(C)(=O)O)cc1` stands inactive: 4.7%; under `COc1ccccc1OP(C)(=O)Nc1ccc(C)cc1C` (stereo not given), inactive: -0.9%.
The result for `CP(=O)(Nc1ccccn1)Oc1ccccc1` (stereo not given) reads inactive: 8.3%; that for `COc1ccccc1OP(C)(=O)Nc1ccc(Br)cc1` (stereo not given), inactive: 4.4%.
`CN(C)CCOC(=O)C(O)(c1ccccc1)C1CCCC1` (stereo not given): the inhibition was inactive: 10%.
The result for `COc1ccc(OP(C)(=O)Nc2ccccn2)cc1` (stereo not given) reads inactive: 42.7%; that for `CP(=O)(OCCOc1ccccc1)OCCOc1ccccc1`, inactive: -13%.
Turning to `CP(=O)(Nc1ccc(Cl)cc1Cl)Oc1ccccc1` (stereo not given), the inhibition is inactive: 7.4%.
Under `CCCCCCCCCCCCCCCC1C[N+](C)(C)CCOP(C)(=O)O1` (stereo not given) stands inactive: 28%; under `Cc1cc(C)cc(OP(C)(=O)Nc2cccc(C(F)(F)F)c2)c1` (stereo not given), inactive: 19%.
Under `O=C1C(O)=C([N+](=O)[O-])C(=O)C(O)=C1[N+](=O)[O-]` stands inactive: -14%; under `COc1ccc(OP(C)(=O)Nc2ccccc2Br)cc1` (stereo not given), inactive: 9.2%.
Under `COc1ccccc1OP(C)(=O)Nc1ccc(C)c(C)c1` (stereo not given) stands inactive: 2.3%; under `CCN(CC)CCCOC(=O)C(O)(c1ccccc1)C1CCCCC1` (stereo not given), inactive: -10.4%; under `Cc1c([N+](=O)[O-])cc([N+](=O)[O-])c(Br)c1[N+](=O)[O-]`, inactive: 0.1%.
Regarding `O=[N+]([O-])c1cc([N+](=O)[O-])c(OC2CCCCC2O)c([N+](=O)[O-])c1` (stereo not given), the inhibition was inactive: -10.5%.
On to `CCCCCOc1ccc(NP(C)(=O)Oc2ccc(Cl)cc2Cl)cc1` (stereo not given), for which the inhibition was inactive: -7.1%.
Under `CP(=O)(Nc1ccccc1)Oc1ccc(F)cc1` (stereo not given) stands inactive: 13.7%; under `COc1ccc(OP(C)(=O)Nc2ccc(SC(F)(F)F)cc2)cc1` (stereo not given), inactive: -10.2%; under `CCOC(=O)c1ccc(NP(C)(=O)Oc2ccc(F)cc2)cc1` (stereo not given), inactive: 3.2%.
For the compound `O=C(OCCN1CCN(CCOCc2ccccc2)CC1)C(O)(c1ccccc1)c1ccccc1`, the inhibition was inactive: 0.6%.
Under `O=C(OC1CN2CCC1CC2)c1ccc([N+](=O)[O-])cc1` (stereo not given) stands inactive: -3%.
The result for `COc1ccc2c(c1O)-c1c(O)c(OC)cc3c1[C@H](C2)[N+](C)(C)CC3.O=[N+]([O-])c1cc([N+](=O)[O-])c([O-])c([N+](=O)[O-])c1[O-]` reads inactive: 0.2%; that for `O=[N+]([O-])c1cc([N+](=O)[O-])c(Nc2ccc(Cl)cc2)c([N+](=O)[O-])c1`, inactive: 29.2%; that for `CC(C)c1ccc(OP(C)(=O)Nc2ccc(SC(F)(F)F)cc2)cc1` (stereo not given), inactive: 9.5%.
Under `CP(=O)(Nc1ccccc1F)Oc1ccccc1` (stereo not given) stands inactive: 4.2%.
Regarding `CP(=O)(Nc1ccc2c(c1)OCCO2)Oc1ccccc1` (stereo not given), the inhibition was inactive: -0.1%.
Under `Cc1ccccc1NP(C)(=O)Nc1ccccc1C` stands inactive: -17.3%.
The result for `CP(=O)(Nc1ccc(SC(F)(F)F)cc1)Oc1ccc(F)cc1` (stereo not given) reads inactive: -1.6%; that for `CCOP(C)(=S)SCC(=O)NC(C)(CC)C(=O)O` (stereo not given), inactive: 2.2%; that for `Cc1cc(-c2cccc3ccccc23)c(C)cn1.O=[N+]([O-])c1cc([N+](=O)[O-])c(O)c([N+](=O)[O-])c1`, inactive: 0.9%.
Under `O=[N+]([O-])c1cc([N+](=O)[O-])c(NCC2CCS(=O)(=O)C2)c([N+](=O)[O-])c1` (stereo not given) stands inactive: 25.1%; under `O=[N+]([O-])c1ccc(OP2(=O)COCCO2)cc1` (stereo not given), inactive: 1.4%; under `Cc1c(C(c2ccc3c(c2)OCO3)c2c(C)n(C)n(-c3ccccc3)c2=O)c(=O)n(-c2ccccc2)n1C.O=[N+]([O-])c1cc([N+](=O)[O-])c(O)c([N+](=O)[O-])c1`, inactive: 19%.
For the compound `COc1ccc(OP(C)(=O)Nc2cccc(Br)c2)cc1` (stereo not given), the inhibition is inactive: -6.9%.
Turning to `COc1ccc(NP(C)(=O)Oc2ccccc2OC)cc1` (stereo not given), the inhibition was inactive: 4.2%.
As for `CN(C)CCOC(=O)C(O)(c1ccccc1)C1CCCCC1` (stereo not given), the inhibition is inactive: 4.3%.
Take `CN1CCCCC1COC(=O)C1(O)c2ccccc2CCc2ccccc21` (stereo not given): the inhibition is inactive: 4.5%.
Under `COc1ccccc1OP(C)(=O)Nc1c(C)cccc1C` (stereo not given) stands inactive: -13.9%.
Under `CP(=O)(Nc1ccc(SC(F)(F)F)cc1)Oc1ccccc1` (stereo not given) stands inactive: -13.6%; under `CCCOc1ccc(NP(C)(=O)Oc2ccc(Cl)cc2)cc1` (stereo not given), inactive: 2.5%.
Turning to `CCOC(=O)C(CC)C1=NC(C)(C)Cc2ccccc21.O=[N+]([O-])c1cc([N+](=O)[O-])c(O)c([N+](=O)[O-])c1` (stereo not given), the inhibition is inactive: -17.9%.
The result for `O=[N+]([O-])c1cc([N+](=O)[O-])c(Nc2nnnn2CCO)c([N+](=O)[O-])c1` reads inactive: 0.5%.
Under `CC1=C2N=C(C=C3N=C(C(C)=C4[N-][C@@](C)([C@@H]5N=C1[C@](C)(CCC(=O)NC[C@@H](C)OP(=O)([O-])O[C@H]1[C@@H](O)[C@@H](n6cnc7cc(C)c(C)cc76)O[C@@H]1CO)[C@H]5CC(N)=O)[C@@](C)(CC(N)=O)[C@@H]4CCC(N)=O)[C@@](C)(CC(N)=O)[C@@H]3CCC(N)=O)C(C)(C)[C@@H]2CCC(N)=O.[C-]#N.[Co+3]` stands inactive: -12.1%; under `O=[N+]([O-])c1cc([N+](=O)[O-])c(-c2cnn(-c3ccccc3)c2)c([N+](=O)[O-])c1`, inactive: 12.4%; under `Cc1nc2ccc3ccccc3c2s1.O=[N+]([O-])c1cc([N+](=O)[O-])c(O)c([N+](=O)[O-])c1`, inactive: 16.2%.
On to `O=[N+]([O-])c1cc([N+](=O)[O-])c(-n2nnc3ccccc32)c([N+](=O)[O-])c1`, for which the inhibition is inactive: -5.5%.
Under `CN(Cc1cccnc1)C(=O)COc1ccc(Cl)c(Cl)c1.O=[N+]([O-])c1cc([N+](=O)[O-])c(O)c([N+](=O)[O-])c1` stands inactive: -2.5%; under `CP(=O)(Nc1cccc(Br)c1)Oc1ccccc1` (stereo not given), inactive: -16.4%.
The result for `Cc1cc(C)cc(OP(C)(=O)Nc2ccccn2)c1` (stereo not given) reads inactive: 4.2%; that for `Cc1ccc(C)c(NP(C)(=O)Oc2ccccc2)c1` (stereo not given), inactive: 13.3%; that for `COc1ccccc1OP(C)(=O)Nc1cccc(Br)c1` (stereo not given), inactive: -3.8%.
As to `Cc1cc(C)cc(OP(C)(=O)Nc2ccc(C)cc2C)c1` (stereo not given), the inhibition was inactive: 0.9%.
Turning to `CCOC(=O)c1ccc(NP(C)(=O)Oc2cc(C)cc(C)c2)cc1` (stereo not given), the inhibition is inactive: 4%.
Take `CC1=NCCc2c1[nH]c1ccccc21.O=[N+]([O-])c1cc([N+](=O)[O-])c(O)c([N+](=O)[O-])c1`: the inhibition was inactive: 11.4%.
Under `O=C(O)c1cccc(Nc2c([N+](=O)[O-])cc([N+](=O)[O-])cc2[N+](=O)[O-])c1` stands inactive: -7.6%; under `CCOC(=O)c1ccc(NP(C)(=O)Oc2ccccc2)cc1` (stereo not given), inactive: 31.7%; under `Cc1ccc(NP(C)(=O)Oc2ccccc2)c(C)c1` (stereo not given), inactive: -1.2%.
Under `COc1ccccc1OP(C)(=O)Nc1ccc(C)cc1` (stereo not given) stands inactive: 1.3%; under `COc1ccc(OP(C)(=O)Nc2cccc(F)c2)cc1` (stereo not given), inactive: 8.6%.
`COc1ccccc1OP(C)(=O)Nc1cc(Cl)ccc1C` (stereo not given): the inhibition was inactive: 27.9%.
Under `Cc1cc(C)cc(OP(C)(N)=O)c1` (stereo not given) stands inactive: -11.6%; under `O=[N+]([O-])c1cc([N+](=O)[O-])c(Nc2cccnc2)c([N+](=O)[O-])c1`, inactive: 39.6%; under `Cc1cccc(C)c1OP(C)(N)=O` (stereo not given), inactive: -5%.
The result for `CC(C)(C)c1ccc(OP(C)(=O)Nc2ccc(SC(F)(F)F)cc2)cc1` (stereo not given) reads inactive: 8.4%; that for `O=[N+]([O-])c1ccc2c(c1)C=Nc1ccccc1O2`, inactive: 46.3%.
In the case of `CCN(CC)CCCOC(=O)C(O)(c1ccccc1)c1ccccc1`, the inhibition was inactive: -10.2%.
Turning to `CCOP(C)(=S)SCC(=O)NC(C)C(=O)O` (stereo not given), the inhibition was inactive: -2.3%.
For the compound `O=[N+]([O-])c1cc([N+](=O)[O-])c(O)c([N+](=O)[O-])c1.c1ccc(Oc2ccncc2)cc1`, the inhibition is inactive: -5.5%.
The result for `CCOC(=O)c1ccc(NP(C)(=O)Oc2ccc(OC)cc2)cc1` (stereo not given) reads inactive: 6.5%; that for `CP(=O)(Nc1ccccn1)Oc1ccc(Cl)cc1` (stereo not given), inactive: 6.7%.
Regarding `CP(=O)(Oc1ccccc1)OC(c1ccccc1)C(F)(F)F` (stereo not given), the inhibition was inactive: 2.5%.
The result for `CP(=O)(Nc1ccc(SC(F)(F)F)cc1)Oc1ccc(Cl)cc1` (stereo not given) reads inactive: 15.5%; that for `Cc1ccc(Nc2c([N+](=O)[O-])cc([N+](=O)[O-])cc2[N+](=O)[O-])cc1`, inactive: 45.7%.
The result for `Cc1cccc(C)c1OP(C)(=O)Nc1ccc(SC(F)(F)F)cc1` (stereo not given) reads inactive: 5%; that for `Cc1cc(C)cc(OP(C)(=O)Nc2ccc(SC(F)(F)F)cc2)c1` (stereo not given), inactive: -2.8%.
Under `CCc1ccc(OP(C)(=O)N2CCN(c3ccc([N+](=O)[O-])cc3)CC2)cc1` (stereo not given) stands inactive: -9.2%; under `CP(=O)(NC(=O)Nc1ccccc1)Oc1ccccc1` (stereo not given), inactive: 12%; under `CP(=S)(Nn1cnnc1)Oc1ccccc1` (stereo not given), inactive: 1.1%.
Take `COc1ccccc1OP(C)(=O)Nc1ccccc1` (stereo not given): the inhibition was inactive: -4.9%.
Under `CP(=O)(Nc1ccccc1Br)Oc1ccccc1` (stereo not given) stands inactive: 0.2%.
